# The entries are a selection whose mix differs from that of the whole data set. Calls of active or inactive are those of the source. No stated cut-off is given here; in the data, active means activation above about 19%; inactive means the rest.
# Molecular target: cAMP-dependent protein kinase type II-beta regulatory subunit (Homo sapiens) (UniProt P31323)
# Experiment: activators of PKA-R2B holoenzyme, confirmation, biochemical, fluorescence polarization, human (AID 504797)
# Conditions: PKA-R2B complex, at 11.4 µM, stronger effect = higher value
compound,measurement,value
c1nnnn1CCn1cnnn1,activation,inactive: 1.84%
